# Data reported in paper PMC7812675 (ACS Medicinal Chemistry Letters, 2020).
# Target: VHL/EloB/EloC complex (VBC) (Homo sapiens, UniProt P40337)
# Test: Competitive MST assay, unlabeled peptides against VHL and FAM reporter peptide
# Conditions: derived from IC50
# [1] = FAM-11mer competition, 570 nM VBC/20 nM FAM-11mer reporter
# [2] = FAM-19mer competition, 80 nM VBC/20 nM FAM-19mer reporter
Ki [1],Ki [2],SMILES
604 nM,535 nM,CC[C@H](C)[C@H](NC(=O)[C@H](Cc1ccc(O)cc1)NC(=O)[C@@H]1C[C@@H](O)CN1C(=O)[C@H](C)NC(=O)[C@H](CC(C)C)NC(=O)[C@H](C)NC(=O)[C@H](CCC(=O)O)NC(=O)[C@@H](N)CC(=O)O)C(=O)N1CCC[C@H]1C(=O)N[C@@H](CCSC)C(=O)N[C@@H](CC(=O)O)C(=O)O [11mer]
167 nM,203 nM,CC[C@H](C)[C@H](NC(=O)[C@H](Cc1ccc(O)cc1)NC(=O)[C@@H]1C[C@@H](O)CN1C(=O)[C@H](C)NC(=O)[C@H](CC(C)C)NC(=O)[C@H](C)NC(=O)[C@H](CCC(=O)O)NC(=O)[C@@H](N)CC(=O)O)C(=O)N1CCC[C@H]1C(=O)N[C@@H](CCSC)C(=O)N[C@@H](CC(=O)O)C(=O)N[C@@H](CC(=O)O)C(=O)N[C@@H](CC(=O)O)C(=O)N[C@@H](Cc1ccccc1)C(=O)N[C@@H](CCC(N)=O)C(=O)N[C@@H](CC(C)C)C(=O)N[C@@H](CCCNC(=N)N)C(=O)N[C@@H](CO)C(=O)N[C@@H](Cc1ccccc1)C(=O)O [19mer]
